In PMC6597546, “Identification of a potent benzoxaborole drug candidate for treating cryptosporidiosis” (Nature Communications, 2019):
Several values for one entry are separate records, joined by “and”; a condition that tells them apart may be missing. Equal values may be shown once.

Legend:
THP-1 = assay: Cytotoxicity THP-1 (3d); format: cell-based; conditions: versus cytotoxicity in three cell lines, in all cases
[1] = system: C. parvum DMC1 positive parasites; assay: Asexual-to-sexual stage conversion assay (DMC1 expression); format: cell-based, Cryptosporidium parvum
Experimental: The invasion assay, DNA replication assay, asexual to sexual stage conversion, and time-kill curve assays were performed using fluorescence microscopy to enumerate parasites and host cell nuclei. Staining protocols are individually described for each assay. Unless noted otherwise, the details of image acquisition were as follows. An inverted Nikon Eclipse Ti2000 microscope with an automated stage and Perfect Focus was used with NIS-Elements Advanced Research software (Nikon, USA, version 4.30.01) to image the wells. The microscope was programmed to focus on the center of each well and then take a 3 × 3 composite image per well using a 20 × (0.45 NA) objective. Images were exported as .tiff files and parasites and host nuclei counted using a custom macro on ImageJ (National Institutes of Health, version 1.52a). Data were analyzed using Microsoft Excel and GraphPad Prism (version 6.01). […] Amphotericin B (Sigma, catalog# A2942) was added to the culture media at 0.1 to 0.5 µg per mL for the DMC1 dose response assays.

[2] = system: C. parvum (Bunch Grass Farms Iowa isolate); assay: Time-kill curve assay in HCT-8 cells; format: cell-based, Cryptosporidium parvum
Experimental: The invasion assay, DNA replication assay, asexual to sexual stage conversion, and time-kill curve assays were performed using fluorescence microscopy to enumerate parasites and host cell nuclei. Staining protocols are individually described for each assay. Unless noted otherwise, the details of image acquisition were as follows. An inverted Nikon Eclipse Ti2000 microscope with an automated stage and Perfect Focus was used with NIS-Elements Advanced Research software (Nikon, USA, version 4.30.01) to image the wells. The microscope was programmed to focus on the center of each well and then take a 3 × 3 composite image per well using a 20 × (0.45 NA) objective. Images were exported as .tiff files and parasites and host nuclei counted using a custom macro on ImageJ (National Institutes of Health, version 1.52a). Data were analyzed using Microsoft Excel and GraphPad Prism (version 6.01). Time-kill curve assays were used to assess if AN7973 is parasiticidal or parasitistatic for C. parvum. C. parvum Iowa isolate oocysts (Bunch Grass Farms, Deary, ID) were treated to induce excystation and added to >90% confluent HCT-8 cells in 384-well plates. […] The monolayers were then washed, fixed, and stained with Vicia villosa lectin and DAPI at the indicated time points, and imaged as for the C. parvum growth assay. Separate 384-well plates were used for each time point. Parasite numbers were normalized to host cell nucleus numbers and expressed as the percentage of host cells infected. Drug-induced parasite decay was isolated from the reduction in parasites over time that occurs spontaneously in the HCT-8 culture system by expressing the number of parasites as the percentage of the number of parasites present at each time point under control (DMSO-treated) conditions.

[3] = Rat toxicokinetics (TK) study; format: in vivo, Sprague-Dawley male rats; conditions: Day 1/Day 7

CC1(C)OB(O)c2cc(NC(=O)c3ccc(-n4cccn4)cc3Cl)ccc21 [AN7973]
selectivity index for inhibition of Cryptosporidium (THP-1): greater than 50 | potency against asexual growth relative to asexual-to-sexual differentiation [1]: four times more potently | % C. parvum relative to DMSO control ([2]; 9 x EC90, 0 h exposure): 92.14% and 109.39% and 105.07% and 102.65% | % C. parvum relative to DMSO control ([2]; 9 x EC90, 6 h exposure): 83.7% and 79.89% and 95.49% and 93.58% | % C. parvum relative to DMSO control ([2]; 9 x EC90, 12 h exposure): 41.75% and 66.95% and 75.41% and 60.54% | % C. parvum relative to DMSO control ([2]; 9 x EC90, 24 h exposure): 24.09% and 22.06% and 25.28% and 19.33% | % C. parvum relative to DMSO control ([2]; 9 x EC90, 48 h exposure): 20.46% and 21.37% and 29.19% and 32.15% | % C. parvum relative to DMSO control ([2]; 12 x EC90, 0 h exposure): 92.14% and 109.39% and 105.07% and 102.65% | % C. parvum relative to DMSO control ([2]; 12 x EC90, 6 h exposure): 82.48% and 57.91% and 72.29% and 81.49% | % C. parvum relative to DMSO control ([2]; 12 x EC90, 12 h exposure): 56.04% and 53.36% and 47.41% and 62.87% | % C. parvum relative to DMSO control ([2]; 12 x EC90, 24 h exposure): 20.18% and 31.66% and 25.42% and 16.17% | Accumulation index, AUC0-24h ratio [3]: 0.91 | Accumulation index, Cmax ratio [3]: 0.87
